# pIC50: −log10 of the molar value. Where “and” joins values, the source holds several entries; their conditions need not be identical. Equal entries are not always repeated.
# The chains behind the UniProt entries cited, without tags or fusion partners. Residues count along the entry.
# UniProt P03956, 100-262 limits assumed: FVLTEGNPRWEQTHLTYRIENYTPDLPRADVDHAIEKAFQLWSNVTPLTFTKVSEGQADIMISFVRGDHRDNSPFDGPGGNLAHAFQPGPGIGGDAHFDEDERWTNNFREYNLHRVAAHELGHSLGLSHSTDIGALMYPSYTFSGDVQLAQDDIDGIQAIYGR
# UniProt P08253, 110-660 limits assumed: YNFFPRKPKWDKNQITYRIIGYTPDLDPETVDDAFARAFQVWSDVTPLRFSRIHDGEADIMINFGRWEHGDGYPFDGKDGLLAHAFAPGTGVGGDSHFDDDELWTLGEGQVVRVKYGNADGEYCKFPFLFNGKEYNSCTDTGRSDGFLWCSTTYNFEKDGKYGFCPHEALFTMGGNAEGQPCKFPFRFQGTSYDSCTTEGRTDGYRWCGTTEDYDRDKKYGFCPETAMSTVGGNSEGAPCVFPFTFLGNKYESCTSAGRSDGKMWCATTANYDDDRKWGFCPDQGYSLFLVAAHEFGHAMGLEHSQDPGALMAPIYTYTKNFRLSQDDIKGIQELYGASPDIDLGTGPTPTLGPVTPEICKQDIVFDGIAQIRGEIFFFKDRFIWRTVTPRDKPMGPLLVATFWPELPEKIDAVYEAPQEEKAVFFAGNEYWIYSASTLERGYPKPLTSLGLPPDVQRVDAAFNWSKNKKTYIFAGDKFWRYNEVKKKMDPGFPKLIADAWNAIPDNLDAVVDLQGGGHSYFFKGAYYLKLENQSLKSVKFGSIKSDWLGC
# Columns and labels:
# [1] = molecular target: human MMP-1 (amino acids 100-262) (Homo sapiens, UniProt P03956); assay: MMP dose response assay for determining IC50, MMP-1; conditions: read-out: MMP-1; recombinant catalytic domain, fluorescent-quench substrate 100 nM
# [2] = molecular target: human MMP-2 (amino acids 1-660) (Homo sapiens, UniProt P08253); assay: MMP dose response assay for determining IC50, MMP-2; format: biochemical; conditions: read-out: MMP-2; recombinant enzyme, fluorescent-quench substrate 100 nM
smiles,measurement,setting,value
CNC(=O)C1CCN([C@@H](CN(c2ccc(Oc3ccc(C(F)(F)F)cc3)cc2)S(C)(=O)=O)C(=O)NO)CC1,pIC50,[1],< 5.00
same,pIC50,[2],8.24 and 8.29

# Source: patent publication US20080085893A1, “MATRIX METALLOPROTEASE INHIBITORS” (priority 2006, published 2008)
